Here are results for 2 substances from PMC3655773 (Acta pharmaceutica Sinica. B, 2012).

The nature of this data set: Pharmacokinetic assay in rat. Particulars: male SD rats.
The mark [1] stands for this setting: i.g. 20 mg/kg in 10% PEG400, parent 3 measured.

For the substance “2-Oxo-2-[(3′, 4′-di-O-(S)-camphanoyl-4-methyl-(+)-cis-kellactone-3-yl)methoxy] acetic acid [Compound 5]”, the Tmax under setting [1] was found to be 30 min. Moreover, where the note is “i.g. 20 mg/kg vs 3 i.v. 2 mg/kg, dose-normalized AUC(0-t)”, the “F (oral bioavailability)” value is 10.3%.
For “2-Oxo-2-[(3′, 4′-di-O-(S)-camphanoyl-4-methyl-(+)-cis-kellactone-3-yl)methoxy] acetic acid [Compound 7]”, the Vd under setting [1] was 0.373 ± 0.193 L/kg. Besides, the “AUC(0-t)” value (i.g. 20 mg/kg in 10% PEG400, plasma parent compound 3 measured) was 354.2 ± 105.6 ng·L/mL.
